# Screens as filed in PubChem.
# This is a sample that favours compounds with a hit; in the whole collection about 0.92% have one here.
# GALK inh – galactokinase (human) inhibition. P51570. Purified GALK, Kinase-Glo residual ATP luminescence. Potency, µM (titrated, usually from 57.5 µM), for the others: top-dose activity change, negative = inhibition, usual class: inhibitors. 270,000 tested, 0.007% active. AID 1868; further: potency means the concentration at half of the fitted maximal effect; on the % scale 0 is the no-effect control and ±100 the full control effect
#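 Compounds were pin-transferred into ATP buffer (35 uM final), then GALK plus galactose (5 nM, 100 uM final) was added. After 1 h at room temperature, Kinase-Glo Plus was added and luminescence read after 10 min.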
# RXFP1 agonist – activates the human relaxin receptor RXFP1; Q9HBX9; HEK293T-RXFP1 cAMP TR-FRET, 30 min; response scale: percent of porcine relaxin response, buffer zero; Potency, µM (series often up to 57.5 µM), inactives show top-dose activation, actives largely listed as activators; 370,000 tested, 0.3% active; further: potency means the concentration at half of the fitted maximal effect; on the % scale 0 is the no-effect control and ±100 the full control effect; nearly all actives have a fitted effect of over 60% in size
#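 HEK293T cells stably expressing RXFP1 were pretreated with the PDE4 inhibitor Ro 20174, exposed to compounds for 30 min at 37C, lysed, and cAMP was read by TR-FRET. Data normalized to buffer (basal) and 29 nM porcine relaxin (100%).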
# RXFP1 antag – RXFP1 (human) relaxin receptor antagonism. Q9HBX9. HEK293-RXFP1, relaxin-stimulated cAMP HTRF, 30 min; stronger effect = lower value. activity change, negative = inhibition, % at 57.5 µM. 350,000 tested, 0.59% active;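 active means activity change of -60% or lower, but not beyond a set lower limit; inconclusive means change between -60% and -40%, or beyond the set limit; inactive means change above -40%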; further: on the % scale 0 is the no-effect control and ±100 the full control effect
# miR-21 FLuc – raises the signal of a miR-21 reporter | HeLa miR-21 FLuc reporter, luciferase, 48 h | 340,000 tested, under 10 active | Potency, µM (titrated, usually from 38.3 µM), inactives show at the highest dose reporter change, positive = more light; active = well fitted rising curve with a large enough effect; inconclusive = small, poorly fitted or top-dose-only effect; inactive = no such curve, though single readings can be large or run the other way;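 further: % of control where 0% means no effect; miR-21 action dims this reporter so a rising signal means less miR-21 action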
#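 HeLa cells endogenously expressing miR-21, stably carrying CMV-driven firefly luciferase with a downstream miR-21 binding site, 2000 cells/well. Titrations up to approximately 40 uM, 48 hours; luciferase luminescence read.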
# PKM2 act – increases activity of human pyruvate kinase M2. P14618. purified PKM2, Kinase-Glo ATP luminescence, activation; response scale: 0% is enzyme alone, no compound. Potency, µM (top dose mostly 57.5 µM), for inactives: top-dose activation, usual class: activators. 260,000 tested, 0.34% active. AID 1631; further: potency means the concentration at half of the fitted maximal effect; on the % scale 0 is the no-effect control and ±100 the full control effect; nearly all actives have a fitted effect of over 55% in size
#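 ATP formation by purified human PK-M2, quantified via coupled luciferase luminescence after 1 h at room temperature with 0.1 mM ADP and 0.5 mM PEP final.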
# KinaseGlo FLuc – Kinase-Glo luciferase inhibition (counter-screen) | Q27757 | Kinase-Glo luciferase, ATP luminescence, 8 min | Potency, µM (top dose mostly 38.3 µM), without a hit: at the highest dose activity change, negative = inhibition, most hits filed as inhibitors | 200,000 tested, 0.28% active; further: potency means the concentration at half of the fitted maximal effect; on the % scale 0 is the no-effect control and ±100 the full control effect; nearly all actives have a fitted effect of over 60% in size
#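 Compounds were added to a substrate mix at pH 7.2 (50 mM imidazole, 10 uM ATP, within the enzyme's linear range), followed by Kinase-Glo detection reagent; luminescence was measured after 8 minutes at ambient temperature.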
# HeLa tox – HeLa cytotoxicity, CellTiter-Glo readout; activity change, negative = cytotoxicity, % at 57.5 µM; HeLa viability, CellTiter-Glo ATP luminescence, 24 h; shares compounds with PKM2 act; AID 1898; 230 tested, under 10 active; further: % of control where 0% means no effect
# An asterisk follows results filed as active; ? = inconclusive; . = no result; ! = not active in a repeat; [ ] = dose if it differs, or a comment. Unless noted, the call rests on the fitted dose curve; in most records, active means well fitted curve in the direction sought with a large enough effect; inconclusive means small, poorly fitted or top-dose-only effect, or another doubt; inactive means no such curve, though single readings can be large; an effect the other way counts as inactive or inconclusive.
# A first look (six entries):
SMILES,GALK inh,RXFP1 agonist,RXFP1 antag,miR-21 FLuc,PKM2 act,KinaseGlo FLuc,others
O=C(NCc1ccc2c(c1)OCO2)c1ccc2c(c1)N(Cc1cccc(Cl)c1)C(=O)c1ccccc1S2=O (stereo not drawn),.,2%,0,-1%,.,.,
CCOc1cc(CNCCO)cc(Br)c1OCc1ccccc1Cl,-1%,-1%,-74*,?,-3%,-5%,
CCOc1cc(CNCCO)cc(Br)c1OCc1ccc(Cl)cc1,0%,2%,-10,?,0%,-2%,
CCOc1cc(CNCCCN2CCOCC2)cc(Br)c1OCc1ccccc1Cl,-3%,3%,-92*,?,3%,0%,
CCOc1cc(CNCCN2CCOCC2)ccc1OCc1ccccc1Cl,4%,-4%,1,-17%,-1%,-1%,
O=Cc1ccc(O)c(O)c1O,.,.,-5,.,.,.,

# All compounds of this part (from the top)
SMILES,GALK inh,RXFP1 agonist,RXFP1 antag,miR-21 FLuc,PKM2 act,KinaseGlo FLuc,others
O=C(NCc1ccc2c(c1)OCO2)c1ccc2c(c1)N(Cc1cccc(Cl)c1)C(=O)c1ccccc1S2=O (stereo not drawn),.,2%,0,-1%,.,.,
CCOc1cc(CNCCO)cc(Br)c1OCc1ccccc1Cl,-1%,-1%,-74*,?,-3%,-5%,
CCOc1cc(CNCCO)cc(Br)c1OCc1ccc(Cl)cc1,0%,2%,-10,?,0%,-2%,
CCOc1cc(CNCCCN2CCOCC2)cc(Br)c1OCc1ccccc1Cl,-3%,3%,-92*,?,3%,0%,
CCOc1cc(CNCCN2CCOCC2)ccc1OCc1ccccc1Cl,4%,-4%,1,-17%,-1%,-1%,
O=Cc1ccc(O)c(O)c1O,.,.,-5,.,.,.,
COc1ccc(C(=O)CCC(=O)N2CCN(c3ccc(C)cc3)C(C)C2)cc1 (stereo not drawn),-3%,0%,0,12%,2%,.,
COc1ccc(C(C)=O)cc1Cn1cnc2c(cnn2C)c1=O,-1%,13µM*,39,-7%,-1%,.,
O=C1c2ccccc2C(=O)c2c(Nc3ccc(CCO)cc3)ccc(O)c21,.,-20%,-3,2%,-13%,.,
O=C1c2c(O)ccc(O)c2C(=O)c2c(NCCNCCO)ccc(NCCNCCO)c21,.,-1%,?,.,.,13µM*!,
Cc1c(N)cccc1C(F)(F)F,.,.,-9,.,.,.,
COc1ccc(N/C=C2\CCc3ccccc3C2=O)cc1,1%,-3%,1,20%,-41%,11µM*,
O=C1/C(=C/Nc2ccc3c(c2)OCO3)CCc2ccccc21,5%,0%,.,15%,-71%,2.8µM*,
COc1ccc2c(c1)CC/C(=C\Nc1ccc3c(c1)OCO3)C2=O,-1%,0%,4,-41%,-1%,-9%,
O=C(NCCCCN1CCCC1)c1ccc(Cc2nc3ccccc3[nH]2)cc1,.,.,.,.,.,1%,
Cc1ccc(C(=O)NCc2ccc(F)cc2)cc1NC(=O)c1nsc2ccccc12,.,1%,-14,-1%,.,.,
COCCCN1CCN(C2Cc3ccccc3Sc3ccc(Cl)cc32)CC1 (stereo not drawn),-2%,0%,.,26%,-10%,-3%,
Fc1ccc2c(c1)Sc1ccc(Cl)cc1CC2N1CCN(CCC2OCCO2)CC1 (stereo not drawn),.,.,-62*,.,.,.,
O=C(c1ccccc1)c1cc(Cl)ccc1N1C(=O)C=CC1=O,9%,0%,-63*,?,25%,1%,
O=C(CC(=O)c1cc(Cl)ccc1O)c1ccccc1,2%,1%,-20,-15%,4%,1%,
CCN(C(=O)COC(=O)c1cccnc1Nc1ccccc1F)C1CCS(=O)(=O)C1 (stereo not drawn),7%,-1%,-8,-39%,-12%,10µM*,
CCn1c2ccccc2c2cc(CN3CCN(Cc4cc(OC)c(O)c(OC)c4)CC3)ccc21,.,3%,-67*,-22%,.,.,
Cc1ccc(C)c(NC(=O)Cn2c(=O)n(Cc3ccc4c(c3)OCO4)c(=O)c3ccccc32)c1,.,1%,.,-2%,.,.,
CCc1ccc(/C=C2/Sc3ccccc3N(CC(=O)NCCCN3CCOCC3)C2=O)cc1,1%,0%,-10,1%,.,.,
Cc1ccccc1CN1C(=O)/C(=C\c2ccc(C(=O)NCCN3CCOCC3)cc2)Sc2ccccc21,-4%,2%,5,3%,.,.,
Cc1cccc(CN2C(=O)/C(=C\c3ccc(C(=O)NCCN4CCOCC4)cc3)Sc3ccccc32)c1,4%,2%,-87*,23%,.,.,
O=C(CN1C(=O)/C(=C/c2ccc(C(F)(F)F)cc2)Sc2ccccc21)NCCCN1CCOCC1,4%,0%,-109*,-3%,.,.,
COc1cc(C2Nc3c(F)cccc3C3C=CCC32)cc(Br)c1OC (stereo not drawn),-1%,-2%,-65*,-2%,8%,-1%,
COc1cccc(C2Nc3c(F)cc(Br)cc3C3C=CCC32)c1OC (stereo not drawn),.,2%,-15,0%,-2%,0%,
O=[N+]([O-])c1ccc(O)c(C=Nc2cccc3ccccc23)c1,4%,1%,-96*,-2%,-20%[11.5 µM],.,
COC(=O)N[C@@H](c1ccc(Br)cc1)C(C(=O)OC)C(=O)OC,.,.,.,.,.,-2%,
CCN(CC)S(=O)(=O)c1ccc(Cl)c(NC(=O)CSc2cccc[n+]2[O-])c1,0%,25µM*,-1,-2%,3%,.,
CCN(CC)S(=O)(=O)c1ccc(NC(=O)CSc2cccc[n+]2[O-])cc1,-1%,1%,8,5%,-2%,-5%,
COc1ccc(-c2nc(NC(=O)c3ccc(OCC(=O)N4CCOCC4)c(OC)c3)sc2C)cc1,1%,-1%,-2,-9%,1%,-1%,
COc1cc(C(=O)Nc2nc(-c3ccc(Cl)cc3)c(C)s2)ccc1OCC(=O)Nc1ccc(F)cc1,1%,20µM*,-9,-5%,11%,.,
CCc1ccc(-c2nc(NC(=O)c3ccc(OCC(=O)Nc4ccc(F)cc4)c(OC)c3)sc2C)cc1,0%,32µM*,9,2%,0%,-3%,
CCc1noc(C)c1C(=O)Nc1nc(-c2ccc(F)cc2)c(C)s1,-3%,0%,-16,4%,1%,.,
O=C(O)CCCc1ccc2ccccc2c1,.,.,.,.,.,-2%[7.66 µM],
CCN(CC)S(=O)(=O)c1ccc2c(c1)nc(SCc1nc3ccsc3c(=O)[nH]1)n2CC,-2%,?,11,5%,13µM*,-3%,
COC(=O)CSc1nc(N)c(C#N)c(-c2ccc(O)cc2)c1C#N,-7%,23%,31,0%,0%,.,
CC(C)c1ccc(-c2c(C#N)c(N)nc(SCC(=O)N3CCCCC3)c2C#N)cc1,0%,22µM*,9,-4%,7%,0%,
Cc1cc2c(cc1S(=O)(=O)Nc1cccc(C)c1C)OCC(=O)N2,.,1%,10,3%,?,.,
Cc1cccc(NS(=O)(=O)c2cc3c(cc2C)NC(=O)CO3)c1,.,-1%,15,1%,0.71µM*,.,HeLa tox=-15
O=[N+]([O-])c1ccc(NCCCNS(=O)(=O)c2ccccc2)c(Cl)c1,1%,0%,-8,-2%,7.9µM*,-1%,HeLa tox=-28
Cc1nc2ccccc2n1Cc1ccccc1,3%,0%,-5,2%,0%,.,
